# AlphaSeq binding of Ab-14 heavy chain variants to a spike HR2 peptide

Antigen: PDVDLGDISGINAS, a 14-residue peptide of the SARS-CoV-2 spike HR2 region.

The variants keep the light chain, the linker and the frameworks of Ab-14 (scFv order VH, a (GGGGS)3 linker, VL).
VH: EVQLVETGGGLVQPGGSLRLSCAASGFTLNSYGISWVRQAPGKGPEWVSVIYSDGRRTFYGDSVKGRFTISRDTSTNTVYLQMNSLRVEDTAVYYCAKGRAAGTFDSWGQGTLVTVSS
VL: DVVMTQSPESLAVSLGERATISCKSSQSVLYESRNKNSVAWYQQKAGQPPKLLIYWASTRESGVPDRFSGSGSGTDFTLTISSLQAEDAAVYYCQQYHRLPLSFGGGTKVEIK

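These sequences belong to a second round, designed from the earlier measurements on random variants of the parent. Several design methods are mixed in this list. In AlphaSeq, yeast of one mating type display the scFv and yeast of the other type display the target. Binding brings cells together so that they mate, and sequencing counts the barcode pairs among the diploids. Each replicate has its own calibration line, from reference interactions of the BCL2 family. There are six technical replicates.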

Each variant is given by its three heavy chain CDRs, as the data file delimits them; those of the parent are GFTLNSYGIS, VIYSDGRRTFYGDSVK, GRAAGTFDS.
Variants here have more than six changes.
The Kd shown is the geometric mean over detected replicates; a lower Kd is a better binder.
"no signal" means that the variant was in the library but no mating with the target was seen in any replicate; the authors take this as a sign of poor binding, and no number exists.
Entries are sorted by rising average, undetected variants last.

- GFDLNEYGIS | VIYADGMRTAYADDVK | GNIAGTFDI = 120 pM (6 of 6 replicates)
- GFDLNEYGIS | VIYADGRRTAYLDSVK | GENAGTFDS = 190 pM (6 of 6 replicates)
- GFDLDEYGIS | VIYADGVRKAYADSVK | GNVAGTFDV = 200 pM (6 of 6 replicates)
- GFDLDEYGIS | VIYADGRRTFYADSVK | GEIAGTFDV = 210 pM (6 of 6 replicates)
- GFDLNEYGIS | VIYADGRRTFYKDSVK | GQNGGTFDV = 280 pM (6 of 6 replicates)
- GFDLNEYGIS | VIYADGKRKAYADSVK | GNVAGTFDQ = 300 pM (6 of 6 replicates)
- GFDLDEYGIS | VIYADGRRTFYTDSVK | GNVAGTFDV = 400 pM (6 of 6 replicates)
- GFSLDEYGIS | VIYADGRRTFYADSVK | GNVAGTFDM = 450 pM (6 of 6 replicates)
- GFDLNEYGIS | VIYADGRRTFYADSVK | GTNAGTFDA = 470 pM (6 of 6 replicates)
- GFDLEDYGIS | VIYADGKRTAYADSVK | GEIAGTFDV = 480 pM (6 of 6 replicates)
- GFDLNEYGIS | VIYADGMRTAYADDVK | GANAGTFDL = 490 pM (6 of 6 replicates)
- GFDLNEYGIS | VIYADGRRTFYADSVK | GKVAGTFIQ = 500 pM (6 of 6 replicates)
- GFDLDEYGIS | VIYADGRRTAYADSVK | GNQAGTFDT = 520 pM (6 of 6 replicates)
- GFDLNEYGIS | VIYADGMRTYYADDVK | GNVAGTFDL = 550 pM (6 of 6 replicates)
- GFDLNEYGIS | VIYADGMRTFYSDSVK | GEAAGTFDV = 600 pM (6 of 6 replicates)
- GFDLNEYGIS | VIYADGQRTFYADSVK | GEAAGSFDQ = 600 pM (6 of 6 replicates)
- GFNLNEYGIS | VIYADGRRTFYADSVK | GSQAGTFDM = 730 pM (6 of 6 replicates)
- GFDLNEYGIS | VIYADGVRTAYSDSVK | GNTAGTFDI = 1.0 nM (6 of 6 replicates)
- GFDLDEYGIS | VIYADGMRTAYTDSVK | GNQAGTFDM = 1.1 nM (6 of 6 replicates)
- GFDLNEYGIS | VIYADGSRVAYAQKVK | GKNDAISSV = 800 nM (1 of 6 replicates)
- GFDLEKYGIS | VIYADGKRVAYTDDVK | GVTGGMLLS = no signal (0 of 6 replicates)
- GFNMDEYGIS | VIYADGRRTFYTESVK | GVVTISGKV = no signal (0 of 6 replicates)
- GFNLDEYGIS | VIYADGKRSMYTDKVK | GVVGDFMMD = no signal (0 of 6 replicates)
- GENLEEYGIS | VIYADGMRTQYAEKVK | GRQGGFFIK = no signal (0 of 6 replicates)
- GFDLDEYGVS | VIYADGIRSTYADAVK | GKHGGAFFV = no signal (0 of 6 replicates)
- GNSLDEYGIS | VIYADGMRTAYTDDVK | GVVSNTLVD = no signal (0 of 6 replicates)
- GNTLDEYGIS | VIYADGVRMAYINKFK | GMDTGTFDQ = no signal (0 of 6 replicates)
- GFNLDEYGIS | VIYADGIRAAYQNSVK | GFTPFVVAI = no signal (0 of 6 replicates)
- GADLNEYGIS | VIYADGDRKAYQDDVK | GDVGGDFDE = no signal (0 of 6 replicates)
- GKSLDEMGIS | VIYADGHRKMYANDVK | GHVGAIFMM = no signal (0 of 6 replicates)

The parent sequence was in this pool as ten entries: three were never detected, three once, and four in most replicates, with averages from 2.2 nM to 240 nM.
As a blank, each scFv also met three strains without target: over all heavy chain designs, 1% of these pairings were detected, typically at 120 nM and seldom below 7.0 nM.
In the paper, a design with two or fewer of six values counts as a poor binder.
The range of this assay differs from that of the first round, and the authors advise against merging the two.

Values reported by Li et al. 2023, doi:10.1038/s41467-023-39022-2 (FLAb copy).